Molecules are shown by their SMILES. This is one part of the list.

This test relates to A. baumannii ATCC 17978. The test is described as follows: relative growth (fraction of control); higher = less inhibition. As to conditions: 50 µM.
In the case of `CC(=O)Oc1c(C)cccc1C(=O)O`, the relative growth stood at 1.04.

The compound `COc1cccc(C#Cc2cnc3c(c2)C(=O)N([C@H](C)CO)C[C@@H](C)[C@@H](CN(C)C(=O)C2CCC2)O3)c1` gave a relative growth of 0.697.

In turn, `CO[C@@H](CN(C)S(=O)(=O)c1cccc(Cl)c1)[C@@H](C)CN([C@H](C)CO)S(=O)(=O)c1cccc(Cl)c1` gave a relative growth of 0.914.

As for `Cc1cc(NC(=O)C(=O)NC[C@H]2CCCO2)n(-c2nc(=O)cc(C)[nH]2)n1`, the relative growth turned out to be 1.09.

`CC(C)CC#Cc1ccc2c(c1)O[C@H](CN(C)S(=O)(=O)c1cccc(F)c1)[C@@H](C)CN([C@@H](C)CO)S2(=O)=O` showed a relative growth of 1.41.

Turning to `NC(=O)CSc1nnnn1-c1ccccc1`, the relative growth came out at 0.965.

Compound `CS(=O)(=O)c1ccc([C@@H](O)[C@@H](CO)NC(=O)C(Cl)Cl)cc1` displayed a relative growth of 0.925.

`Cc1ccc(Cn2nnc3c(=O)n(CC(N)=O)cnc32)cc1` returned a relative growth of 0.869.

In turn, `O=c1[nH]c(=O)n(C2C[C@H](O)[C@@H](CO)O2)cc1C(F)(F)F` (some centres undefined) had a relative growth of 0.984.

In the case of `Cl.Nc1c(Br)cc(Br)cc1CNC1CCC(O)CC1` (centres undefined), the relative growth was 0.769.

The compound `Clc1ccc(COC(Cn2ccnc2)c2ccc(Cl)cc2Cl)c(Cl)c1.O=[N+]([O-])O` (centres undefined) had a relative growth of 1.13.

Compound `O=c1[nH]cc(F)c(=O)[nH]1` returned a relative growth of 0.882.

For the compound `CCc1ccc(NC(=N)N=C(N)N)cc1`, the relative growth is 0.987.

Take `COc1ccc(Cc2nn[nH]n2)cc1`: the relative growth was 0.977.

`O=C1CSC(=Nc2nccs2)N1` showed a relative growth of 0.915.

`CN(C)c1n[nH]c(=O)[nH]c1=O` returned a relative growth of 1.12.

`O=c1cc(-c2cc(O)c(O)c(O)c2)oc2cc(O)cc(O)c12` came in with a relative growth of 0.822.

As for `O=C(C[C@@H]1C=C[C@H](NC(=O)c2ccncc2)[C@H](CO)O1)NCc1ccncn1`, the relative growth was determined as 1.09.

In turn, `CC[C@@H]1COCCC(=O)N1` came in with a relative growth of 0.92.

The compound `O=C(Nc1cc(Cl)cc(Cl)c1O)c1c(O)c(Cl)cc(Cl)c1Cl` returned a relative growth of 0.681.

On to `CCOC[C@@H](O)CS(=O)(=O)c1ccccn1`, for which the relative growth was 1.04.

With `O=C(N[C@@H]1CC[C@@H](CC(=O)N2CCOCC2)O[C@@H]1CO)c1ccccn1`, the relative growth turned out to be 1.

`CN(C)C(=O)Cn1c(=O)oc2ccccc21` came in with a relative growth of 1.02.

Compound `CO[C@H]1CN(C)C(=O)c2ccc(NC(=O)c3ccc(F)cc3)cc2OC[C@H](C)N(C(=O)CN(C)C)C[C@H]1C` returned a relative growth of 1.15.

With `C[C@@H]1CC(=O)NN=C1c1ccc(NN=C(C#N)C#N)cc1`, the relative growth amounted to 0.958.

For `CC(=O)Nc1c(C)[nH]c2ncnn2c1=O`, the relative growth was determined as 0.974.

Turning to `OC[C@H](O)C(O)[C@@H](O)CO`, the relative growth was found to be 1.11.

`C[C@H]1CN([C@@H](C)CO)S(=O)(=O)c2ccc(C#CC3CC3)cc2O[C@H]1CN(C)C(=O)C1CCCCC1` came in with a relative growth of 0.914.

In turn, `O=C(C[C@H]1C=C[C@@H](NS(=O)(=O)c2ccc(F)cc2)[C@H](CO)O1)NCCN1CCCCC1` came in with a relative growth of 0.974.

These data come from published antibiotic growth screens (doi:10.1038/s41589-023-01349-8).
